Test results from paper PMC6105598, “Targeting protein-protein interactions for therapeutic discovery via FRET-based high-throughput screening in living cells” (Scientific Reports, 2018).
“And” between values parts separate entries of the source, which are not always exact repeats. Equal entries are not always repeated.

Protein sequences, listed by entry. Tags and fused reporters are not part of them. Residues count along the entry.
UniProt P16615, 1-997 isoform P16615-2, stated change not applied: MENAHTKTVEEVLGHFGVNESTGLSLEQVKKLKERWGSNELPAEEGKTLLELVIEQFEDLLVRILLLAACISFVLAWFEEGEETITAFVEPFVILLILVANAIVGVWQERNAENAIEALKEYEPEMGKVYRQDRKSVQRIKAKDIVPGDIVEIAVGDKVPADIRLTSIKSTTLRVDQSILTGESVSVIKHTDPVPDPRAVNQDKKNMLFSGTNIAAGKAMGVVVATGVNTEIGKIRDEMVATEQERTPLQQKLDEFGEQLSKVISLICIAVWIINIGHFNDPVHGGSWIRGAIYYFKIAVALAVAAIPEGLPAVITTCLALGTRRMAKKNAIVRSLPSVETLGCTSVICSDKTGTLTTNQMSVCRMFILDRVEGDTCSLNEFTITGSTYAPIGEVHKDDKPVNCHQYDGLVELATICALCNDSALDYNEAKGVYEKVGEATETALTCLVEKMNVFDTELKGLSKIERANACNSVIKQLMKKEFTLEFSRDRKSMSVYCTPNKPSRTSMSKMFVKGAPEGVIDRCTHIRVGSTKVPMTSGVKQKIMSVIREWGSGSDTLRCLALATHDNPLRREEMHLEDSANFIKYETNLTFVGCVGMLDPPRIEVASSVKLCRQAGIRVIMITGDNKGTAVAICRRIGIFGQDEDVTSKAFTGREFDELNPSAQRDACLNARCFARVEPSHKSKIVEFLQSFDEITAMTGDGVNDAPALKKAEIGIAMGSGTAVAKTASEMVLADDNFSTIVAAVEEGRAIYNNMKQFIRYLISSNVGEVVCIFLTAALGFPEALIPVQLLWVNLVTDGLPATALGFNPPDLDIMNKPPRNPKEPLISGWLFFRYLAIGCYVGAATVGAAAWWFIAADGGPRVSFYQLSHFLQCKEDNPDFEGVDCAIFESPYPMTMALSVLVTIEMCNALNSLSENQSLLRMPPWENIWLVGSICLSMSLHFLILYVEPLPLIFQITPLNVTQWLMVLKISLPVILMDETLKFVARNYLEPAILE
UniProt P26678, whole entry C36A/C41F/C46A: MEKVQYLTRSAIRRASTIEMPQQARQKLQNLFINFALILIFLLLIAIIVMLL
UniProt P11607, 1-997 isoform P11607-2: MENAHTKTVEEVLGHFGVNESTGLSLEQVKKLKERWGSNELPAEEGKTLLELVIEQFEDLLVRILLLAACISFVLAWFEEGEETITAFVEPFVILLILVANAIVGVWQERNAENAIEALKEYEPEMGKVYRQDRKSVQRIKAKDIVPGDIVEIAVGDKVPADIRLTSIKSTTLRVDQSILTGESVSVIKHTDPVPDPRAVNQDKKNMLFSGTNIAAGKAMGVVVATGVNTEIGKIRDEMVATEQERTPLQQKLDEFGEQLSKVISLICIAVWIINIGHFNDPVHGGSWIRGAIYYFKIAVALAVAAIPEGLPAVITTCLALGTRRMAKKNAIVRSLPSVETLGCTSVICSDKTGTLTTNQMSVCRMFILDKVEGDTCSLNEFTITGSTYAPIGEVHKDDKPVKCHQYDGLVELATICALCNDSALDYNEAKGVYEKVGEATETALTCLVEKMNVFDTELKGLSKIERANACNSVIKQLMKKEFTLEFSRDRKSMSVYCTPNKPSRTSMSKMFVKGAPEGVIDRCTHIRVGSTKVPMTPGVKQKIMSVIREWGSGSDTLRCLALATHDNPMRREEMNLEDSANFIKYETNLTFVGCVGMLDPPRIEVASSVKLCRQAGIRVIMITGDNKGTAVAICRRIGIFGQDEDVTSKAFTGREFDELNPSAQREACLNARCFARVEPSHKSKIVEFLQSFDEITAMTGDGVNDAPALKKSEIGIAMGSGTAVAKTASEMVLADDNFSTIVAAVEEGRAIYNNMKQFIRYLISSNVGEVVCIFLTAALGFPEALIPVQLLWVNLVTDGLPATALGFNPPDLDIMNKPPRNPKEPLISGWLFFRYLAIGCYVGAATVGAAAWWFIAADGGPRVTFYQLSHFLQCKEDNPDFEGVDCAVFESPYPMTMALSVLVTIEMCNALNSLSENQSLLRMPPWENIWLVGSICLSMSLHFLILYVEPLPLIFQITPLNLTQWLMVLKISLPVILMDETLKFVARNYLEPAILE

What was measured:
[1] = biological target: SERCA2a-PLB complex (GFP-SERCA2a / RFP-PLB in HEK293 cells) (Homo sapiens, UniProt P16615+P26678, C36A/C41F/C46A); test: SERCA2a-PLB TR-FRET (fluorescence lifetime) biosensor assay in living cells; format: cell-based; parameters: expressed in transfected cells; host or cells: HEK293
[2] = biological target: T1, cardiac SR (SERCA2a + PLB) (Sus scrofa, UniProt P11607); test: Ca-ATPase activity of cardiac SR (CSR), NADH-linked enzyme-coupled assay; format: biochemical, pig; parameters: pKCa @30 µM: unit not given here
T1 construct: Cardiac SR membrane vesicles were isolated from ventricular myocardium obtained from fresh pig hearts; from tissue; host or cells: pig ventricular myocardium, SR membrane vesicles
Method: To characterize the relationship between the structural readout (FRET) and the functional effects, in vitro Ca-ATPase assays were performed on cardiac SR (which contains both SERCA2a and PLB). […] To further examine the functional effects of Hit compounds, Ca-ATPase assays were performed on both skeletal SR (SERCA1a only) and cardiac SR (SERCA2a + PLB) at a series of Ca concentrations ranging from pCa 5 to 8.
Skeletal muscle SR membrane vesicles were isolated from longissimus dorsi obtained from New Zealand white rabbits, as previously described. Cardiac SR membrane vesicles were isolated from ventricular myocardium obtained from fresh pig hearts. All experimental protocols were reviewed and approved by University of Minnesota’s Institutional Animal Care and Use Committee, an Association for Assessment and Accreditation of Laboratory Animal Care institution.
An enzyme-coupled, NADH-linked ATPase assay was used to measure SERCA ATPase activity in 96-well microplates. Each well contained 0.8 μg (skeletal) or 2 μg (cardiac) of SR vesicles adjusted for the different SERCA contents of skeletal and cardiac SR, 50 mM MOPS (pH 7.0), 100 mM KCl, 5 mM MgCl2, 1 mM EGTA, 0.2 mM NADH, 1 mM phosphoenol pyruvate, 10 IU/mL of pyruvate kinase, 10 IU/mL of lactate dehydrogenase, 3.5 μg/mL of the Ca ionophore A23187, and CaCl2 added to set free [Ca] to the desired values. The assay was started upon the addition of ATP at a final concentration of 5 mM and read in a SpectraMax Plus microplate spectrophotometer rom Molecular Devices (Sunnyvale, CA).

With Ivermectin the EC50 [1] was 5.9 µM, the “direction of FRET change of the SERCA2a-PLB biosensor” value [1] was “decrease in FRET” and the ΔFLT [1] was 53 ps and 56 ps. For the same substance, the EC50 [2] was 6.2 µM, the “Vmax @ 30 µM” value [2] was 0.15 i.u and the “decrease of Vmax” value [2] was 78%. The “pKCa @30 µM” value [2] was 6.10 and the “ΔVmax @ 30 µM” value [2] was -77.9%.
